This passage reports IC50 results from patent publication US11090304B2 (Amgen Inc., priority 2018, dated 2021).

By UniProt entry, the sequences of proteins in these tests, tags left out. Residues count along the entry.
UniProt P01116, 1-169 isoform 2 C118A/G12C limits assumed: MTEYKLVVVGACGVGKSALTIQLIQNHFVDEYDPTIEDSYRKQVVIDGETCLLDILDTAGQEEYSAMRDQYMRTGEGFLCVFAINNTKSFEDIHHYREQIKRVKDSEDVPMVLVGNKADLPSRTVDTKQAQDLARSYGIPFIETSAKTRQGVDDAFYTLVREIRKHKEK

The target in experiment [1] is GDP-bound KRAS protein (aa 1-169), containing both G12C and C118A amino acid substitutions (Homo sapiens, UniProt P01116, C118A/G12C). The experiment is described as follows: Coupled nucleotide exchange assay (SOS-mediated, AlphaScreen). In kind it is biochemical. As to conditions: read-out: Coupled exchange IC50 (5 min); 5 min compound pre-incubation. (In general: In Alpha technology, singlet oxygen from a donor bead excites a nearby acceptor bead.)

Experiment [2] concerns Phosphorylation of ERK1/2 in MIA PaCa-2 cells. Nature of the experiment: Phospho-ERK1/2 MSD assay in MIA PaCa-2 cells. In kind it is cell-based. As to conditions: read-out: p-ERK IC50 (2 h; MIA PaCa-2), 2 h compound treatment.

As to `C=CC(=O)N1CCN(c2nc(=O)n(-c3cccnc3C(C)(C)C)c3nc(-c4c(O)cccc4F)c(Cl)cc23)[C@@H](C)C1` (single isomer, unassigned) [Example 54-103-1], the IC50 (as a rule, the concentration that inhibits the measured activity by half) in experiment [1] turned out to be 136 nM; in experiment [2], 173 nM.
